Reference: ChEMBL document CHEMBL1275402, “Virtual screening to identify novel antagonists for the G protein-coupled NK3 receptor” (J Med Chem, 2010)

Amino acid sequences for entries named in this document (tags omitted).
UniProt P29371, whole entry: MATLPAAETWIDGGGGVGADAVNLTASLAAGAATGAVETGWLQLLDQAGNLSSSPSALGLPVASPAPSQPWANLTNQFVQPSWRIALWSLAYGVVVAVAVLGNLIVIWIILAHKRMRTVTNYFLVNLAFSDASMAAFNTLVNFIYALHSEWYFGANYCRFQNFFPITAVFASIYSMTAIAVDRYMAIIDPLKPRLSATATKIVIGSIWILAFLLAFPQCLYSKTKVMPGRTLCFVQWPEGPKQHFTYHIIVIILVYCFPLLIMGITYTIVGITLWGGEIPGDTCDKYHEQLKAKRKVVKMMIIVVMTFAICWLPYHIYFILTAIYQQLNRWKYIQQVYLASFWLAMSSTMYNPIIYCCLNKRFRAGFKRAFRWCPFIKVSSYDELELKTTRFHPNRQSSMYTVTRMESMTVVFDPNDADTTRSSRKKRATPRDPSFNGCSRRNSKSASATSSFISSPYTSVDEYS

Molecular target: Neuromedin-K receptor (Homo sapiens, UniProt P29371)
Assay: Antagonist activity against human NK3 receptor expressed in HEK293 cells assessed as inhibition of increase of intracellular calcium level by fluorescent plate-reader analysis
Assay type: functional, cell-based

IC50: 6.1 nM
SMILES: CC[C@H](NC(=O)c1c(O)c(-c2ccccc2)nc2ccccc12)c1ccccc1 [TALNETANT]
